Molecules are shown by their SMILES.

Protein sequences, listed by entry. Tags and fused reporters are not part of them. Lines headed by an entry give the natural chain unless they say otherwise; changes in a name come on top. Residues count along the entry.
UniProt O95264, 22-441: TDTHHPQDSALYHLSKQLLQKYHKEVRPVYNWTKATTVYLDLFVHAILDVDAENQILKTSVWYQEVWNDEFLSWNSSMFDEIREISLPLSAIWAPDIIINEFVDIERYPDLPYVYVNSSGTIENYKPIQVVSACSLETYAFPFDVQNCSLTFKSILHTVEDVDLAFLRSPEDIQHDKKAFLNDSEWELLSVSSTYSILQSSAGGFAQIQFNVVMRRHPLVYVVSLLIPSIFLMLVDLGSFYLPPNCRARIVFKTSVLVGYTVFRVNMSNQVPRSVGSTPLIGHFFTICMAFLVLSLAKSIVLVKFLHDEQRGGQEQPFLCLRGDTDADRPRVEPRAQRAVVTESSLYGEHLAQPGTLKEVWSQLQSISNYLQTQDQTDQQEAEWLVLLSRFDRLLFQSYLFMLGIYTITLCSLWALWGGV
UniProt P46098, 24-478 T279S: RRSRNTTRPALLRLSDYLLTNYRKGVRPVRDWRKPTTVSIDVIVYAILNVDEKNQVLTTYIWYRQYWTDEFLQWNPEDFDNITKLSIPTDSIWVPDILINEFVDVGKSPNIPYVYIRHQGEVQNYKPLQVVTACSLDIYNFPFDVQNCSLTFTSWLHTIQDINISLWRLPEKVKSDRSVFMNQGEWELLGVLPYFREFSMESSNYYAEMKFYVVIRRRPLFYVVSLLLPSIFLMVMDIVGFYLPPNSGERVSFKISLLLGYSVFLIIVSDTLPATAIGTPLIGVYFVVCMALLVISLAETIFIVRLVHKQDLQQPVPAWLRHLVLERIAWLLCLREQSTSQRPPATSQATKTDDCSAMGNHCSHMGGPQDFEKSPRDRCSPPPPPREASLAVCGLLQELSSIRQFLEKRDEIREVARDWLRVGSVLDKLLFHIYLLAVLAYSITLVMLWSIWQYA

Experimental findings from publication PMC3834762 (British Journal of Pharmacology, 2013) are described below.

This test has as its target 5‐HT3AT6'SB receptors (Homo sapiens, UniProt O95264+P46098, T279S). The experiment in a line: two‐electrode voltage clamp, 5‐HT3AT6'SB mutant receptors in Xenopus oocytes. Type of test: cell-based. The conditions noted are these: mutant vs wild type heteromer.

On to `NCCc1c[nH]c2ccc(O)cc12` [5‐HT, 5‐hydroxytryptamine], for which the “decrease in EC50 at 5‐HT3AT6'SB compared to 5‐HT3AB receptors” value is 67 fold.
